Test results published in PubChem BioAssay (NCI).
The entries are a selection whose mix differs from that of the whole data set. Some structures have more than one record in an assay (separate samples or runs), and their calls can disagree. Calls of active or inactive are those of the source. Rule as the data show it: active = growth inhibition above about 70%; inactive = the rest.

Test: NCI Yeast Anticancer Drug Screen. Data for the rad52 strain (AID 147);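 also: 0% = growth of vehicle-treated control cultures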
Details: S. cerevisiae rad52 mutant growth inhibition, active compounds read high
Description: Growth inhibition of yeast strains with defined genetic alterations is measured as a screen for potential anti-cancer activity. Selected strains with alterations in DNA damage repair or cell cycle control were exposed to compounds and growth inhibition was measured relative to vehicle treated controls. The strain used in this assay is rad52

Row | SMILES | growth inhibition (at 1.2 µM) | growth inhibition (at 3.7 µM) | growth inhibition (at 11.0 µM) | growth inhibition (at 33.0 µM) | growth inhibition (at 100.0 µM)
1 | FC1(F)SC2C(C1(F)F)C1(Cl)C(Cl)=C(Cl)C2(Cl)C1(Cl)Cl (stereo not given) | inactive: 31% | active: 94% | active: 99% | active: 98% | active: 98%
2 | CC(C)c1nc(Nc2ccccc2)n(P(=O)(N(C)C)N(C)C)n1 | inactive: 8% | inactive: 25% | inactive: 20% | inactive: 59% | active: 90%
3 | COc1cccc(C[N+](C)(CCCl)CCCl)c1[N+](=O)[O-] | inactive: 2% | inactive: 5% | inactive: 25% | active: 78% | active: 94%
4 | N#Cc1cc([N+](=O)[O-])cc([N+](=O)[O-])c1N | inactive: 7% | inactive: 17% | inactive: 31% | inactive: 49% | active: 70%
5 | O=C1OC(C(Cl)(Cl)Cl)Sc2ccccc21 (stereo not given) | inactive: 1% | inactive: 5% | inactive: 20% | inactive: 51% | active: 76%
6 | O=[N+]([O-])c1cc([N+](=O)[O-])c2nsnc2c1 | inactive: 20% | active: 75% | active: 99% | active: 99% | active: 99%
